Source: ChEMBL document CHEMBL2157904, “Identification of a novel Smoothened antagonist that potently suppresses Hedgehog signaling” (Bioorg Med Chem, 2012)

Amino acid sequences for entries named in this document (tags omitted).
Protein smoothened (Homo sapiens), Q99835, UniProt Q99835, whole entry D473H: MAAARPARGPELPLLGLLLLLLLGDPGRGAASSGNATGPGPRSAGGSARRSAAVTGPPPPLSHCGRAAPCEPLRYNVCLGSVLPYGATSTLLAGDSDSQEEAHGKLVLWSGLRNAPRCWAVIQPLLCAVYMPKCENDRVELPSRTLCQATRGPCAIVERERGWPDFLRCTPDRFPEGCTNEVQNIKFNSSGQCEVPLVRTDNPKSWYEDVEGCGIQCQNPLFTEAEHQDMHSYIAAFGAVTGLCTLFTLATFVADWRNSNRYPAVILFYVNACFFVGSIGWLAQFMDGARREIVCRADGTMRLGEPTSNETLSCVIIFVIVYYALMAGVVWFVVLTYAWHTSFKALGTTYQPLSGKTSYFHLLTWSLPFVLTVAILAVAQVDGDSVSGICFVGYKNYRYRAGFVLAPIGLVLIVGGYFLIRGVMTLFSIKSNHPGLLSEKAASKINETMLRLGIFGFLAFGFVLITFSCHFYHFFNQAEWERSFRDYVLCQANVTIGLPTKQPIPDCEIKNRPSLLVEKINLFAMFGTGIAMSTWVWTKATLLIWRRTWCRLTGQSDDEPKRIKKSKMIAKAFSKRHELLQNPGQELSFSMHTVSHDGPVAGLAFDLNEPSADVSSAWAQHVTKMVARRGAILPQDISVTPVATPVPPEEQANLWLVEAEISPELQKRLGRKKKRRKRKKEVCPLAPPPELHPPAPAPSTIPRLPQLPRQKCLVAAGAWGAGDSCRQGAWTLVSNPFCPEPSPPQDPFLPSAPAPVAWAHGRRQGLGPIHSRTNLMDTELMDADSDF

Columns and labels:
[1] = test system: Protein smoothened (Homo sapiens), Q99835 [D473H]; assay: Displacement of [3H]cyclopamine from Smo D473H mutant expressed in U2OS cells after 2 hrs by scintillation counting relative to control; format: cell-based
[2] = test system: Protein smoothened (Homo sapiens), Q99835 [D473H]; assay: Displacement of [3H]cyclopamine from Smo D473H mutant expressed in U2OS cells up to 10 uM after 2 hrs by scintillation counting; format: cell-based

Structure (SMILES)	fold change (FC) [1]	Activity [2]
O=C(NC1CCN(Cc2ccc(N3CCC(NC(=O)c4cccc(-c5cccnc5)c4)CC3)nc2)CC1)c1cccc(-c2cccnc2)c1	13	
Cc1c(C(=O)Nc2ccc(N3C[C@@H](C)O[C@@H](C)C3)nc2)cccc1-c1ccc(OC(F)(F)F)cc1		inactive

Activity calls are given as the source filed them. The rule behind the calls is not given here.
